Biological target: EZH2 (Homo sapiens (Human), UniProt Q15910)
Assay: PRC2 enzyme assay on peptide substrates
Format: biochemical
Conditions: read-out: EZH2 IC50; PRC2 enzyme assays on peptide substrates; 4 nM enzyme, 30 min preincubation at 25° C.

Amino acid sequences for entries named in this document (tags omitted). Chains listed by the source or under a name are the forms on record and can include a tag or linker.
UniProt Q15910, with tags, fused parts or gaps limits assumed: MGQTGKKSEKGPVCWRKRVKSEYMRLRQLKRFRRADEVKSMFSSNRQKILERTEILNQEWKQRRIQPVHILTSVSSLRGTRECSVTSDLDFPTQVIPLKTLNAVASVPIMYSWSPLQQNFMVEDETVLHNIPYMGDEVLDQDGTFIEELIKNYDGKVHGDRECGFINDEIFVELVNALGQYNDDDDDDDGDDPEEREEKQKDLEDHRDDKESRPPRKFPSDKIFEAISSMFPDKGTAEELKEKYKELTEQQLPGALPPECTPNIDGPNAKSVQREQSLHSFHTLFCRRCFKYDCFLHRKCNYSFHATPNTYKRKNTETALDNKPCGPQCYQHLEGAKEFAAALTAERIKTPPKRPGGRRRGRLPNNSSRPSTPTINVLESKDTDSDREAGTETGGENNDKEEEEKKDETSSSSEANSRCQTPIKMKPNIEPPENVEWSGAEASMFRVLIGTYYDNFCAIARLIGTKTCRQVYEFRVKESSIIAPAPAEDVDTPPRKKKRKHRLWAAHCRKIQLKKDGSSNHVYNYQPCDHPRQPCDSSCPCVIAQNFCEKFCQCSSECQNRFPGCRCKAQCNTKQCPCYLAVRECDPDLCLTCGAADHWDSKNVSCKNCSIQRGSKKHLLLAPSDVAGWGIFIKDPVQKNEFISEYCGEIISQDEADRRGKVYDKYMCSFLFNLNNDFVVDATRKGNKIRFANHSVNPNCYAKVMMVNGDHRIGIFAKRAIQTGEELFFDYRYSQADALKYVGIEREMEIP
UniProt Q09028, whole entry partner: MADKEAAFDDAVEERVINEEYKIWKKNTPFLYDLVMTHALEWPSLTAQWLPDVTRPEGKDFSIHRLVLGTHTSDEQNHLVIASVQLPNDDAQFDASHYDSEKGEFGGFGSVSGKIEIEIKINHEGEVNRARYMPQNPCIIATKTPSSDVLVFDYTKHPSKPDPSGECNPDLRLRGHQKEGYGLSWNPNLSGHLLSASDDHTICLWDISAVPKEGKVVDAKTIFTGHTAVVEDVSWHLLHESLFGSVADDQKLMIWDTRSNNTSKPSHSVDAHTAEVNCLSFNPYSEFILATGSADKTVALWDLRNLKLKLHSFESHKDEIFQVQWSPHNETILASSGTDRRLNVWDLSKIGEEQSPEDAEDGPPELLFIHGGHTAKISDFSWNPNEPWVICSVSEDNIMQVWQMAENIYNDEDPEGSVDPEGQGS
UniProt O75530, whole entry partner: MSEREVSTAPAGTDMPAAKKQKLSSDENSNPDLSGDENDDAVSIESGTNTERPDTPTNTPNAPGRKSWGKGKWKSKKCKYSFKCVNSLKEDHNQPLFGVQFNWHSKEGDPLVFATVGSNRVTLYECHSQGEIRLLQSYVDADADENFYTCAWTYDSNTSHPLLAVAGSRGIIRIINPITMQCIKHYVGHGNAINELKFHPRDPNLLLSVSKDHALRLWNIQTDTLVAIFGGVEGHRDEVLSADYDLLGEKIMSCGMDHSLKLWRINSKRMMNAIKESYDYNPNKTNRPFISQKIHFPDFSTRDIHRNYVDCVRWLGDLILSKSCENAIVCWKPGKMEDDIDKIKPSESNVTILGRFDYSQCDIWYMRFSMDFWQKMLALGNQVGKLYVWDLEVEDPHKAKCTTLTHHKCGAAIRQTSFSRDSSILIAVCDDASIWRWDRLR
UniProt Q15022, whole entry partner: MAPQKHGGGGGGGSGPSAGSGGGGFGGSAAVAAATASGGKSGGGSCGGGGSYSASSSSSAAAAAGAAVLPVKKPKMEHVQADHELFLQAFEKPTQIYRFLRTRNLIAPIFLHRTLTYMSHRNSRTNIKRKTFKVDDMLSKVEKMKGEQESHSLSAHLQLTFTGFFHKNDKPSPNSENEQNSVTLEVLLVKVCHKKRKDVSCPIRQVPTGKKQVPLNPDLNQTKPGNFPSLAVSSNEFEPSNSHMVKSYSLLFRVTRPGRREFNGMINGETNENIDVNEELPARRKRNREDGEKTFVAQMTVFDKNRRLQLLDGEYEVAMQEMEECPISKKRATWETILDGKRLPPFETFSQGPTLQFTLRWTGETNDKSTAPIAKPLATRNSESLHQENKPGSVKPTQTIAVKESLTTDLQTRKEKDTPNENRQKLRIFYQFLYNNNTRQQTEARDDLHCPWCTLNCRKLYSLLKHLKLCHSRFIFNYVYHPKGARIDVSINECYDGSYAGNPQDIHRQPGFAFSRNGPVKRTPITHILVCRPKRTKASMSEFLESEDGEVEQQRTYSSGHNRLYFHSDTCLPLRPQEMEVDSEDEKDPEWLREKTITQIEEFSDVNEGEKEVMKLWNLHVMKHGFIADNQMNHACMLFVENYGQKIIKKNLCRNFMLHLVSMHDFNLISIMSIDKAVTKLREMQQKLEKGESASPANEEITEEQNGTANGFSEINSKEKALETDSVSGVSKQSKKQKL

Row | SMILES | IC50 [µM]
1 | Cc1cc(C(=O)NCc2c(C)cc(C)[nH]c2=O)c2cnn(C(C)C)c2n1 | 3 to 10
2 | COc1ccc(-c2cc(C(=O)NCc3c(C)cc(C)[nH]c3=O)c3cnn(C(C)C)c3n2)cc1 | 10 to 50
3 | Cc1cc(C)c(CNC(=O)c2cc(-c3ccc4c(c3)OCCO4)nc3c2cnn3C(C)(C)C)c(=O)[nH]1 | 10 to 50
4 | Cc1cc(C)c(CNC(=O)c2cc(-c3ccc(C(N)=O)cc3)nc3c2cnn3C(C)C)c(=O)[nH]1 | 0.3 to 1
5 | Cc1cc(C)c(CNC(=O)c2cc(-c3ccc(S(C)(=O)=O)cc3)nc3c2cnn3C(C)C)c(=O)[nH]1 | 0.3 to 1
6 | Cc1cc(C)c(CNC(=O)c2cc(-c3ccc(F)cc3)nc3c2cnn3C(C)C)c(=O)[nH]1 | 10 to 50
7 | CC(=O)c1cccc(-c2cc(C(=O)NCc3c(C)cc(C)[nH]c3=O)c3cnn(C(C)C)c3n2)c1 | 10 to 50
8 | Cc1cc(C)c(CNC(=O)c2cc(-c3ccc4c(c3)OCO4)nc3c2cnn3C(C)C)c(=O)[nH]1 | 0.3 to 1
9 | Cc1cc(C)c(CNC(=O)c2cc(-c3cccc(N(C)C)c3)nc3c2cnn3C(C)C)c(=O)[nH]1 | 10 to 50
10 | Cc1cc(C)c(CNC(=O)c2cc(-c3ccc(C(C)(C)C)cc3)nc3c2cnn3C(C)C)c(=O)[nH]1 | 3 to 10
11 | Cc1cc(C)c(CNC(=O)c2cc(-c3cccc(CO)c3)nc3c2cnn3C(C)C)c(=O)[nH]1 | 10 to 50
12 | CC(=O)Nc1cccc(-c2cc(C(=O)NCc3c(C)cc(C)[nH]c3=O)c3cnn(C(C)C)c3n2)c1 | 0.3 to 1
13 | Cc1ccc(CNC(=O)c2cc(-c3ccc4c(c3)OCCO4)nc3c2cnn3C(C)C)c(=O)[nH]1 | 10 to 50
14 | Cc1cc(C)c(CNC(=O)c2cc(-c3ccc(C#N)cc3)nc3c2cnn3C(C)C)c(=O)[nH]1 | 0.3 to 1
15 | Cc1cc(C)c(CNC(=O)c2cc(-c3ccc4c(c3)OCCO4)nc3c2cnn3C(C)C)c(=O)[nH]1 | 0.3 to 1
16 | CCOc1ccc(-c2cc(C(=O)NCc3c(C)cc(C)[nH]c3=O)c3cnn(C(C)C)c3n2)cc1 | 10 to 50
17 | CC(=O)c1ccc(-c2cc(C(=O)NCc3c(C)cc(C)[nH]c3=O)c3cnn(C(C)C)c3n2)cc1 | 10 to 50
18 | Cc1cc(C)c(CNC(=O)c2cc(-c3ccc(OC(C)C)cc3)nc3c2cnn3C(C)C)c(=O)[nH]1 | 10 to 50
19 | Cc1cc(C)c(CNC(=O)c2cc(-c3ccccc3C)nc3c2cnn3C(C)C)c(=O)[nH]1 | 3 to 10
20 | COc1cccc(-c2cc(C(=O)NCc3c(C)cc(C)[nH]c3=O)c3cnn(C(C)C)c3n2)c1 | 10 to 50

Reference: US9637472B2, “Substituted 6,5-fused bicyclic heteroaryl compounds” (Epizyme, Inc., priority 2011, dated 2017)
